Screens deposited in PubChem by Broad Institute.
This is a sample that favours compounds with a hit; in the whole collection about 2.8% have one here.
Statin myotox sup: suppressors of statin myotoxicity in C2C12 myotubes, primary screen, cell-based, single point, plate reader. C2C12 myotubes + simvastatin, ATP luminescence, 48 h; scaled: DMSO 0, geranylgeraniol control 100. rescue of ATP level, % at 7.49 µM. 330,000 compounds, 0.78% hits;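 active = mean ATP rescue above about 67%, or every replicate alone reaching that limit, limit read from the data, passing the limit was not always enough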;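 also: myotubes were challenged with 10 µM simvastatin during compound exposure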
UUG fidelity: alters start codon recognition fidelity in yeast; AID 602363; activity score, % at 18.7 µM; 350,000 tested, 0.13% active; S. cerevisiae UUG-firefly luciferase reporter, luminescence/redox ratio;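 active means replicate mean at a twofold rise or more, about +100% in these data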;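 further: firefly luciferase made from a UUG start codon reports start codon fidelity; reporter light over untreated wells divided by growth signal over untreated wells; some hits fall short of that in this replicate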
PGC1a acetyl inh: inhibitors of PGC1a acetylation signal, primary screen, cell-based, U2OS, AlphaScreen, inhibitor mode; AlphaScreen anti-acetyl-lysine; with virally co-expressed GCN5 acetyltransferase; inhibition, % at 15.6 µM; 350,000 compounds, 0.17% hits; AID 651687, 2012;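 active = every replicate shows inhibition of at least 40%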;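 also: 0% = neutral control wells and 100% = positive control wells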
PglD inh: C. jejuni PglD acetyltransferase inhibitors, primary screen, biochemical, DTNB colorimetric, single point; purified PglD enzyme, DTNB colorimetric CoA detection; inhibition, % at 12.5 µM; 360,000 compounds, 0.098% hits; AID 602405, 2012; in the data active = inhibition above about 16%, passing the limit was not always enough
esBAF inh: Bmi1 luciferase reporter increase in mESCs, primary screen, esBAF inhibitor project, mouse ES cells, Bmi1 luciferase knock-in, single point; 24 h; 100% = twice the neutral-well signal; reporter increase, % at 12.5 µM; 350,000 compounds, 2% hits; AID 602393, 2012; in the data active = activation above about 40%;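 also: 0% = median of the plate's neutral control wells and 100% = double that signal; a rise in the Bmi1 reporter signal indicates esBAF inhibition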
E-sel inducer: E-selectin induction in HUVECs, primary screen, imaging, HUVEC, immunofluorescence imaging, single point. normalized: neutral wells 0, TNF-alpha wells 100. activation, % at 7.58 µM. 260,000 compounds, 0.37% hits. AID 686992, 2013;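 active = mean E-selectin-positive cell signal at least 10% of the positive control, reached in at least 60% of replicates, without over 20% cell loss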
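Read-out basis: % PE-positive cells; Test system: HUVEC primary endothelial cells; Technique: immunofluorescence imaging; Dosing: single-point compound dose.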
* hit, by the source's call; . = not tested or not shown.

Values run as follows: Statin myotox sup | UUG fidelity | PGC1a acetyl inh | PglD inh | esBAF inh | E-sel inducer
> COc1ccccc1CNC(=O)C[C@@H]1C[C@@H]2c3cc(NC(=O)NC4CCCC4)ccc3O[C@@H]2[C@H](CO)O1
  -13 | -12 | -6 | 0 | -4 | 0
> CCCNC(=O)[C@@H]1[C@@H](CO)[C@@H]2Cn3c(ccc(-c4cccnc4)c3=O)[C@@H]2N1Cc1cocn1
  . | . | 0 | . | . | 0
> C[C@@H]1CN([C@H](C)CO)C(=O)c2cc(C#CC3(O)CCCC3)cnc2O[C@@H]1CN(C)C(=O)C1CC1
  3 | . | -3 | . | . | 0
> CC(=O)Nc1cccc(NC(=O)c2ccc(COc3ccccc3)cc2)c1
  7 | -9 | 7 | -1 | 98* | 0
> COc1ccc(NC(=S)c2ccccc2)cc1
  -13 | -9 | 1 | 5 | 61* | .
> COc1cccc(S(=O)(=O)NCc2ccc(C(=O)Nc3ccc(C)cc3)cc2)c1
  95* | -20 | -1 | 3 | 8 | .
> COc1ccc(C(=O)Nc2ccc(C(=O)c3ccccc3)cc2)cc1
  . | -16 | -1 | -5 | . | 0
> COc1ccc(NC(=O)c2cccc(NC(=O)c3ccccc3)c2)cc1
  1 | -5 | -19 | 0 | 41* | 1
> COc1cc(NC(=O)c2ccccc2)cc(OC)c1
  -1 | -12 | -4 | 0 | 65* | .
> COc1ccc(C(=O)Nc2cc(OC)cc(OC)c2)cc1
  -13 | -1 | -2 | 2 | 0 | .
> COc1ccc(OC)c(C(c2nnnn2Cc2ccccc2)N2CCC(C(N)=O)CC2)c1 (stereo not drawn)
  -1 | 3 | -7 | 5 | 2 | .
> COc1ccc(Cn2nnnc2C(c2ccccc2OC)N2CCC(C(N)=O)CC2)cc1 (stereo not drawn)
  100* | -13 | 2 | -1 | 0 | .
> COc1ccc(OC)c(C(c2nnnn2Cc2ccccc2)N2CCN(C3CCCCC3)CC2)c1 (stereo not drawn)
  121* | -8 | 13 | 2 | -1 | .
> O=C(COC(=O)c1ccccc1-n1cnnn1)c1ccc(F)c(F)c1
  16 | -10 | 14 | 3 | 56* | -1
> O=C(COC(=O)c1cccc(-n2cnnn2)c1)c1ccc(F)cc1
  . | . | . | . | . | 2

Next section; it opens with the three that closed the last part.
Values run as follows: Statin myotox sup | UUG fidelity | PGC1a acetyl inh | PglD inh | esBAF inh | E-sel inducer
> COc1ccc(OC)c(C(c2nnnn2Cc2ccccc2)N2CCN(C3CCCCC3)CC2)c1 (stereo not drawn)
  121* | -8 | 13 | 2 | -1 | .
> O=C(COC(=O)c1ccccc1-n1cnnn1)c1ccc(F)c(F)c1
  16 | -10 | 14 | 3 | 56* | -1
> O=C(COC(=O)c1cccc(-n2cnnn2)c1)c1ccc(F)cc1
  . | . | . | . | . | 2
> O=C(COC(=O)c1ccccc1-n1cnnn1)c1ccc(Br)cc1
  -3 | -12 | . | 4 | -20 | -1
> O=C(COC(=O)c1ccccc1-n1cnnn1)c1ccccc1
  -8 | -2 | 8 | -9 | 11 | 0
> O=C(COC(=O)c1ccc(-n2cnnn2)cc1)c1ccc(Br)cc1
  3 | -25 | . | -2 | 29 | 27*
> COc1ccc(C(=O)COC(=O)c2cccc(-n3cnnn3)c2)c(OC)c1
  -8 | -15 | . | 8 | 56* | 0
> COc1ccc(S(=O)(=O)N(C)C[C@H]2Oc3ccc(NC(=O)CCCN(C)C)cc3CC(=O)N([C@@H](C)CO)C[C@@H]2C)cc1
  -4 | 2 | 3 | 0 | 1 | 0
> C[C@H](CO)N1C[C@H](C)[C@H](CN(C)CC2CC2)Oc2c(NS(=O)(=O)c3ccc(Cl)cc3)cccc2C1=O
  -21 | 1 | 3 | 1 | -1 | 0
> Cc1nc2nc(Cc3ccccc3)nn2c(C)c1Cl
  5 | -15 | 3 | 2 | -1 | .
> Cc1nc2nc(COc3ccccc3)nn2c(C)c1Cl
  73* | -19 | 2 | 10 | 17 | .
> O=C(C[C@@H]1C=C[C@@H](NC(=O)CN2CCOCC2)[C@H](CO)O1)NCCc1ccccc1
  -8 | 4 | -7 | -3 | -4 | 0
> CCn1cc(C(=O)NCc2cccc(F)c2)c(=O)c2cc(F)c(N3CCN(C(=O)c4ccco4)CC3)cc21
  79* | -3 | 3 | -2 | 23 | .
> CCCCCCCCCC(=O)N1CCN(c2cc3c(cc2F)c(=O)c(C(=O)O)cn3CC)CC1
  -1 | -5 | 3 | 6 | -1 | .
> CCCCCCC(=O)N1CCN(c2cc3c(cc2F)c(=O)c(C(=O)O)cn3CC)CC1
  153* | -18 | 0 | -2 | 13 | .
